Values quoted from earlier work in patent US7964359B2, “Compositions and methods for the enhancement of soluble amyloid beta oligomer (ADDL) uptake and clearance” (Acumen Pharmaceuticals, Inc., priority 2006, dated 2011).

Chains of the proteins cited; added tags and fusions are not shown.
UniProt P37231, whole entry, species assumed: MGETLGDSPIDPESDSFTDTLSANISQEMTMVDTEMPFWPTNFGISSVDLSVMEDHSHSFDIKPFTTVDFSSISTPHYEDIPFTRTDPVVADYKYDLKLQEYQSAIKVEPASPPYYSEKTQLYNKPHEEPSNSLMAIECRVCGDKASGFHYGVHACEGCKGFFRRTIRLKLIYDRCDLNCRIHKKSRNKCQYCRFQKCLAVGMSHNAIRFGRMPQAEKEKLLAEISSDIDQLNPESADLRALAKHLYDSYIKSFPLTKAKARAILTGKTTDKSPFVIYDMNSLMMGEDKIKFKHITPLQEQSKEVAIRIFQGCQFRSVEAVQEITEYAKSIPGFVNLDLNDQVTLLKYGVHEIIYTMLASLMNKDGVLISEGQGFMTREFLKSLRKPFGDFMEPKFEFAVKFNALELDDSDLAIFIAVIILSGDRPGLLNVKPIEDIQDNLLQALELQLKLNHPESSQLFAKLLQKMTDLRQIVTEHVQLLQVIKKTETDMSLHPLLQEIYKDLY

Molecular target: PPARγ (Homo sapiens, UniProt P37231)
Details: cell types transfected with PPARγ; cited from earlier work

For rosiglitizone, the “clearance of exogenously added Aβ from the media” value is given as “activate rapid and efficient clearance of exogenously added Aβ from the media”.
